Measured values reported in PubChem BioAssay AID588795 (National Center for Advancing Translational Sciences (NCATS), 2011).
Out of some 390,000 compounds screened, about 1,400 (0.36%) were called active. All entries are inconclusive by the source's own rule. Clear calls are listed elsewhere. Calls come from the whole dose curve; as a rule, active = well fitted inhibition curve with a large enough effect; inconclusive = small, poorly fitted or top-dose-only effect; inactive = no such curve, though single readings can be large or run the other way.
Note: nearly all actives have a fitted effect of over 65% in size.
Potency is the fitted concentration of half-maximal effect.

The chains behind the UniProt entries cited, without tags or fusion partners.
UniProt P39748, whole entry, looked up: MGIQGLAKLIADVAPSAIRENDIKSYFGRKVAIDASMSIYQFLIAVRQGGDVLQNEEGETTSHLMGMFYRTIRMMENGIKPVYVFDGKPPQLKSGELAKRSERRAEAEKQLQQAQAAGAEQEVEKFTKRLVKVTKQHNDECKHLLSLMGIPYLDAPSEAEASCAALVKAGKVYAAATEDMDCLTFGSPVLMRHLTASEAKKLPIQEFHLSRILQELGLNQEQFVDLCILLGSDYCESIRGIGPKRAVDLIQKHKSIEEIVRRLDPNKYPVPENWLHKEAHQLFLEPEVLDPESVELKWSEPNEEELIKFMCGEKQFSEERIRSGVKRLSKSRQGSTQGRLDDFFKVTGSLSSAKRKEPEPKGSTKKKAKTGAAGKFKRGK

What follows are compounds tested against Flap endonuclease 1 (Homo sapiens) (UniProt P39748) (assay: qHTS Assay for the Inhibitors of Human Flap endonuclease 1 (FEN1).). Conditions: Recombinant FEN1 flap cleavage, fluorescence, 15 min.
For `O=c1c2cc([N+](=O)[O-])ccc2[nH]c2c([N+](=O)[O-])cc([N+](=O)[O-])cc12`, the Potency was inconclusive: 89.1 µM. `O=[N+]([O-])c1ccc(O)c(/C=N/Nc2ccc([N+](=O)[O-])cc2[N+](=O)[O-])c1` was tested, and the Potency was inconclusive: 79.4 µM.
